Test results published in PubChem BioAssay AID651560 (Sanford-Burnham Center for Chemical Genomics, 2012).
The list shows a part of the results, in another mix than the full data. Some structures show a salt or complex split into parts, the way the source records it. The source made the active and inactive calls.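 The calls were made as follows: active = compounds that cut the enzyme signal by at least half of the control window in the single-dose screen; inactive = the rest.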

Protein sequences, listed by entry. Tags and fused reporters are not part of them.
UniProt P24666, whole entry: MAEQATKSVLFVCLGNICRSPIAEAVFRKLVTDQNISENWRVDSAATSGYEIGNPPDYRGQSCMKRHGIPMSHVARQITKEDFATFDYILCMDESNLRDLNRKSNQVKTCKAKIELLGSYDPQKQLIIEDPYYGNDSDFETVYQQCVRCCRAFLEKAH

Molecular target: Low molecular weight phosphotyrosine protein phosphatase (Homo sapiens) (UniProt P24666)
Assay: inhibition of human LMPTP-A enzyme – biochemical, fluorescence intensity, uHTS, primary screen (AID 651560);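 also: plate controls were DMSO wells with enzyme plus substrate for no effect and substrate without enzyme for full effect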
Conditions: recombinant LMPTP-A, OMFP fluorogenic substrate, at 20 µM, hits give high values
Outline: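 Test system: LMPTP-A, protein tyrosine phosphatase of low molecular weight; Input: 0.625 nM enzyme; Incubation: 50 min dark incubation at room temperature; Signal: endpoint fluorescence intensity from OMFP dephosphorylation; Read-out basis: % inhibition versus control wells.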

Row | SMILES | inhibition
1 | CP(=O)(Nc1ccc2c(c1)OCCO2)Oc1ccccc1 (stereo not drawn) | inactive: -3.2%
2 | O=[N+]([O-])c1cc([N+](=O)[O-])c(C(F)(F)F)c([N+](=O)[O-])c1O | inactive: -0.741%
3 | Cc1ccccc1NP(C)(=O)Nc1ccccc1C | inactive: -1.12%
4 | CP(=O)(Nc1ccc(SC(F)(F)F)cc1)Oc1ccc(F)cc1 (stereo not drawn) | inactive: 2.58%
5 | CCOP(C)(=S)SCC(=O)NC(C)(CC)C(=O)O (stereo not drawn) | inactive: -2.95%
6 | Cc1cc(-c2cccc3ccccc23)c(C)cn1.O=[N+]([O-])c1cc([N+](=O)[O-])c(O)c([N+](=O)[O-])c1 | inactive: -1.36%
7 | O=[N+]([O-])c1cc([N+](=O)[O-])c(NCC2CCS(=O)(=O)C2)c([N+](=O)[O-])c1 (stereo not drawn) | inactive: -0.241%
8 | O=[N+]([O-])c1ccc(OP2(=O)COCCO2)cc1 (stereo not drawn) | inactive: -1.53%
9 | Cc1c(C(c2ccc3c(c2)OCO3)c2c(C)n(C)n(-c3ccccc3)c2=O)c(=O)n(-c2ccccc2)n1C.O=[N+]([O-])c1cc([N+](=O)[O-])c(O)c([N+](=O)[O-])c1 | inactive: -0.821%
10 | COc1ccc(OP(C)(=O)Nc2cccc(Br)c2)cc1 (stereo not drawn) | inactive: -1.82%
11 | COc1ccc(NP(C)(=O)Oc2ccccc2OC)cc1 (stereo not drawn) | inactive: -0.0568%
12 | CN(C)CCOC(=O)C(O)(c1ccccc1)C1CCCCC1 (stereo not drawn) | inactive: -0.519%
13 | CCN(CC)CCCOC(=O)C(O)(c1ccccc1)C1CCCCC1 (stereo not drawn) | inactive: -1.21%
14 | Cc1c([N+](=O)[O-])cc([N+](=O)[O-])c(Br)c1[N+](=O)[O-] | inactive: -0.257%
15 | CCCCCOc1ccc(NP(C)(=O)Oc2ccc(Cl)cc2Cl)cc1 (stereo not drawn) | inactive: 3.62%
16 | O=[N+]([O-])c1cc([N+](=O)[O-])c(OC2CCCCC2O)c([N+](=O)[O-])c1 (stereo not drawn) | inactive: -1.05%
17 | CP(=O)(Nc1ccccc1)Oc1ccc(F)cc1 (stereo not drawn) | inactive: -0.928%
18 | CCN(CC)CCCNc1ccccc1[N+](=O)[O-].O=[N+]([O-])c1cc([N+](=O)[O-])c(O)c([N+](=O)[O-])c1 | inactive: -4.78%
19 | COc1ccc(OP(C)(=O)Nc2ccc(SC(F)(F)F)cc2)cc1 (stereo not drawn) | inactive: 4.15%
20 | CCOC(=O)c1ccc(NP(C)(=O)Oc2ccc(F)cc2)cc1 (stereo not drawn) | inactive: -1.44%
21 | O=C(OCCN1CCN(CCOCc2ccccc2)CC1)C(O)(c1ccccc1)c1ccccc1 | inactive: -3.62%
22 | O=C(OC1CN2CCC1CC2)c1ccc([N+](=O)[O-])cc1 (stereo not drawn) | inactive: -2.74%
23 | COc1ccc2c(c1O)-c1c(O)c(OC)cc3c1[C@H](C2)[N+](C)(C)CC3.O=[N+]([O-])c1cc([N+](=O)[O-])c([O-])c([N+](=O)[O-])c1[O-] | inactive: -1.72%
